## CycPeptMPDB entries from one study

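The data file gives no further conditions (lipid, pH, time, direction or concentration), and values from different papers need not be comparable. Other peptides of the study may be missing here. Entries at the database's floor value (log10 P of -10) are not listed.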

PAMPA measures passive passage through an artificial lipid membrane.
Permeability is given as log10 of P in cm/s; higher (less negative) is more permeable.

PAMPA (log10 cm/s),SMILES
-6.35,CC(=O)N1CCC[C@H]1C(=O)N(C)[C@@H](CC(C)C)C(=O)N[C@@H]1C(=O)N(C)[C@@H](CC(C)C)C(=O)N[C@H](CC(C)C)C(=O)N(C)[C@@H](CC(C)C)C(=O)N(C)[C@@H](C)C(=O)N[C@@H](CC(C)C)C(=O)N2CCC[C@@H]2C(=O)O[C@@H]1C
-5.79,CC(=O)N1CCC[C@H]1C(=O)N(C)[C@H](CC(C)C)C(=O)N[C@@H]1C(=O)N[C@@H](CC(C)C)C(=O)N[C@H](CC(C)C)C(=O)N(C)[C@@H](CC(C)C)C(=O)N[C@@H](C)C(=O)N[C@H](CC(C)C)C(=O)N2CCC[C@H]2C(=O)O[C@@H]1C
-6.09,CC(=O)N1CCC[C@@H]1C(=O)N(C)[C@@H](CC(C)C)C(=O)N[C@@H]1C(=O)N(C)[C@@H](CC(C)C)C(=O)N(C)[C@H](CC(C)C)C(=O)N(C)[C@@H](CC(C)C)C(=O)N(C)[C@@H](C)C(=O)N[C@@H](CC(C)C)C(=O)N2CCC[C@@H]2C(=O)O[C@@H]1C
-6.78,CC(=O)N1CCC[C@H]1C(=O)N[C@@H]1C(=O)N(C)[C@H](CC(C)C)C(=O)N[C@H](CC(C)C)C(=O)N[C@H](CC(C)C)C(=O)N[C@H](CC(C)C)C(=O)N[C@H](C)C(=O)N[C@@H](CC(C)C)C(=O)N2CCC[C@@H]2C(=O)O[C@@H]1C
-6.00,CC(=O)N1CCC[C@H]1C(=O)N(C)[C@@H](CC(C)C)C(=O)N[C@@H]1C(=O)N(C)[C@@H](CC(C)C)C(=O)N[C@@H](CC(C)C)C(=O)N(C)[C@@H](CC(C)C)C(=O)N(C)[C@H](C)C(=O)N[C@H](CC(C)C)C(=O)N2CCC[C@H]2C(=O)O[C@@H]1C
-5.22,CC(=O)N1CCC[C@@H]1C(=O)N(C)[C@@H](CC(C)C)C(=O)N[C@@H]1C(=O)N(C)[C@H](CC(C)C)C(=O)N[C@@H](CC(C)C)C(=O)N[C@H](CC(C)C)C(=O)N(C)[C@H](C)C(=O)N[C@@H](CC(C)C)C(=O)N2CCC[C@H]2C(=O)O[C@@H]1C
-5.33,CC(=O)N1CCC[C@H]1C(=O)N(C)[C@H](CC(C)C)C(=O)N[C@@H]1C(=O)N(C)[C@@H](CC(C)C)C(=O)N[C@H](CC(C)C)C(=O)N(C)[C@H](CC(C)C)C(=O)N(C)[C@H](C)C(=O)N[C@H](CC(C)C)C(=O)N2CCC[C@@H]2C(=O)O[C@@H]1C
-5.96,CC(=O)N1CCC[C@H]1C(=O)N(C)[C@@H](CC(C)C)C(=O)N[C@@H]1C(=O)N(C)[C@@H](CC(C)C)C(=O)N(C)[C@@H](CC(C)C)C(=O)N[C@H](CC(C)C)C(=O)N(C)[C@@H](C)C(=O)N[C@H](CC(C)C)C(=O)N2CCC[C@@H]2C(=O)O[C@@H]1C
-6.14,CC(=O)N1CCC[C@H]1C(=O)N(C)[C@H](CC(C)C)C(=O)N[C@@H]1C(=O)N(C)[C@@H](CC(C)C)C(=O)N[C@H](CC(C)C)C(=O)N[C@H](CC(C)C)C(=O)N(C)[C@H](C)C(=O)N[C@H](CC(C)C)C(=O)N2CCC[C@@H]2C(=O)O[C@@H]1C
-6.41,CC(=O)N1CCC[C@@H]1C(=O)N(C)[C@H](CC(C)C)C(=O)N[C@@H]1C(=O)N[C@H](CC(C)C)C(=O)N[C@@H](CC(C)C)C(=O)N[C@@H](CC(C)C)C(=O)N(C)[C@@H](C)C(=O)N[C@@H](CC(C)C)C(=O)N2CCC[C@H]2C(=O)O[C@@H]1C
-5.47,CC(=O)N1CCC[C@H]1C(=O)N[C@@H]1C(=O)N[C@H](CC(C)C)C(=O)N(C)[C@H](CC(C)C)C(=O)N[C@H](CC(C)C)C(=O)N(C)[C@@H](CC(C)C)C(=O)N(C)[C@H](C)C(=O)N[C@@H](CC(C)C)C(=O)N2CCC[C@@H]2C(=O)O[C@@H]1C
-6.65,CC(=O)N1CCC[C@H]1C(=O)N[C@@H]1C(=O)N[C@H](CC(C)C)C(=O)N[C@H](CC(C)C)C(=O)N[C@H](CC(C)C)C(=O)N[C@@H](CC(C)C)C(=O)N[C@@H](C)C(=O)N[C@@H](CC(C)C)C(=O)N2CCC[C@@H]2C(=O)O[C@@H]1C
-5.94,CC(=O)N1CCC[C@@H]1C(=O)N(C)[C@H](CC(C)C)C(=O)N[C@@H]1C(=O)N(C)[C@@H](CC(C)C)C(=O)N(C)[C@H](CC(C)C)C(=O)N(C)[C@@H](CC(C)C)C(=O)N[C@@H](C)C(=O)N[C@H](CC(C)C)C(=O)N2CCC[C@H]2C(=O)O[C@@H]1C
-5.77,CC(=O)N1CCC[C@H]1C(=O)N(C)[C@@H](CC(C)C)C(=O)N[C@@H]1C(=O)N(C)[C@@H](CC(C)C)C(=O)N[C@@H](CC(C)C)C(=O)N[C@H](CC(C)C)C(=O)N[C@@H](C)C(=O)N[C@@H](CC(C)C)C(=O)N2CCC[C@H]2C(=O)O[C@@H]1C
-6.22,CC(=O)N1CCC[C@H]1C(=O)N[C@@H]1C(=O)N[C@H](CC(C)C)C(=O)N[C@H](CC(C)C)C(=O)N[C@H](CC(C)C)C(=O)N[C@@H](CC(C)C)C(=O)N(C)[C@H](C)C(=O)N[C@@H](CC(C)C)C(=O)N2CCC[C@@H]2C(=O)O[C@@H]1C
-6.04,CC(=O)N1CCC[C@H]1C(=O)N(C)[C@H](CC(C)C)C(=O)N[C@@H]1C(=O)N(C)[C@@H](CC(C)C)C(=O)N(C)[C@@H](CC(C)C)C(=O)N[C@H](CC(C)C)C(=O)N[C@@H](C)C(=O)N[C@H](CC(C)C)C(=O)N2CCC[C@@H]2C(=O)O[C@@H]1C
-5.10,CC(=O)N1CCC[C@H]1C(=O)N[C@@H]1C(=O)N[C@H](CC(C)C)C(=O)N(C)[C@H](CC(C)C)C(=O)N[C@@H](CC(C)C)C(=O)N(C)[C@@H](CC(C)C)C(=O)N[C@H](C)C(=O)N[C@@H](CC(C)C)C(=O)N2CCC[C@@H]2C(=O)O[C@@H]1C
-5.13,CC(=O)N1CCC[C@H]1C(=O)N[C@@H]1C(=O)N[C@H](CC(C)C)C(=O)N(C)[C@H](CC(C)C)C(=O)N(C)[C@@H](CC(C)C)C(=O)N(C)[C@@H](CC(C)C)C(=O)N[C@@H](C)C(=O)N[C@@H](CC(C)C)C(=O)N2CCC[C@@H]2C(=O)O[C@@H]1C
-5.25,CC(=O)N1CCC[C@H]1C(=O)N(C)[C@H](CC(C)C)C(=O)N[C@@H]1C(=O)N(C)[C@H](CC(C)C)C(=O)N(C)[C@@H](CC(C)C)C(=O)N(C)[C@H](CC(C)C)C(=O)N[C@@H](C)C(=O)N[C@H](CC(C)C)C(=O)N2CCC[C@H]2C(=O)O[C@@H]1C
-6.05,CC(=O)N1CCC[C@@H]1C(=O)N(C)[C@@H](CC(C)C)C(=O)N[C@@H]1C(=O)N[C@H](CC(C)C)C(=O)N[C@H](CC(C)C)C(=O)N[C@H](CC(C)C)C(=O)N(C)[C@H](C)C(=O)N[C@H](CC(C)C)C(=O)N2CCC[C@@H]2C(=O)O[C@@H]1C
-5.83,CC(=O)N1CCC[C@@H]1C(=O)N(C)[C@@H](CC(C)C)C(=O)N[C@@H]1C(=O)N[C@H](CC(C)C)C(=O)N[C@H](CC(C)C)C(=O)N[C@@H](CC(C)C)C(=O)N(C)[C@@H](C)C(=O)N[C@H](CC(C)C)C(=O)N2CCC[C@H]2C(=O)O[C@@H]1C

Excerpt, the opening 2 entries:

SMILES,PAMPA (log10 cm/s)
CC(=O)N1CCC[C@H]1C(=O)N(C)[C@@H](CC(C)C)C(=O)N[C@@H]1C(=O)N(C)[C@@H](CC(C)C)C(=O)N[C@H](CC(C)C)C(=O)N(C)[C@@H](CC(C)C)C(=O)N(C)[C@@H](C)C(=O)N[C@@H](CC(C)C)C(=O)N2CCC[C@@H]2C(=O)O[C@@H]1C,-6.35
CC(=O)N1CCC[C@H]1C(=O)N(C)[C@H](CC(C)C)C(=O)N[C@@H]1C(=O)N[C@@H](CC(C)C)C(=O)N[C@H](CC(C)C)C(=O)N(C)[C@@H](CC(C)C)C(=O)N[C@@H](C)C(=O)N[C@H](CC(C)C)C(=O)N2CCC[C@H]2C(=O)O[C@@H]1C,-5.79

Source: CycPeptMPDB (Li et al. 2023), which took these values from Kelly et al. 2021, doi:10.1021/jacs.0c06115.